We go through two compounds from ChEMBL document CHEMBL5365527, “Structure-Guided Design of Nurr1 Agonists Derived from the Natural Ligand Dihydroxyindole” (J Med Chem, 2023).

Protein sequences, listed by entry. Tags and fused reporters are not part of them. Lines headed by an entry give the natural chain unless they say otherwise; changes in a name come on top.
UniProt P10276, whole entry: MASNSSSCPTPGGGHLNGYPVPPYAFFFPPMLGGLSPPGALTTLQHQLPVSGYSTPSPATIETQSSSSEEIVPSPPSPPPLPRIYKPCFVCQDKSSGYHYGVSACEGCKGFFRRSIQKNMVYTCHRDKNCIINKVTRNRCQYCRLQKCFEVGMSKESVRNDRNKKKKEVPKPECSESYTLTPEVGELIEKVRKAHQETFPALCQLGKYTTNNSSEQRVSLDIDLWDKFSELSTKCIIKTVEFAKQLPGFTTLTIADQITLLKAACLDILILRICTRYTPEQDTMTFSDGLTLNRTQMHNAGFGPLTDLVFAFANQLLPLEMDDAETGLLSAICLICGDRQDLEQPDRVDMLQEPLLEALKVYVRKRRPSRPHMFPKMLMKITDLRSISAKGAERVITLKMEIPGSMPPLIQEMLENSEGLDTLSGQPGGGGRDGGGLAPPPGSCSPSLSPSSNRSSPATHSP
UniProt Q07917, whole entry: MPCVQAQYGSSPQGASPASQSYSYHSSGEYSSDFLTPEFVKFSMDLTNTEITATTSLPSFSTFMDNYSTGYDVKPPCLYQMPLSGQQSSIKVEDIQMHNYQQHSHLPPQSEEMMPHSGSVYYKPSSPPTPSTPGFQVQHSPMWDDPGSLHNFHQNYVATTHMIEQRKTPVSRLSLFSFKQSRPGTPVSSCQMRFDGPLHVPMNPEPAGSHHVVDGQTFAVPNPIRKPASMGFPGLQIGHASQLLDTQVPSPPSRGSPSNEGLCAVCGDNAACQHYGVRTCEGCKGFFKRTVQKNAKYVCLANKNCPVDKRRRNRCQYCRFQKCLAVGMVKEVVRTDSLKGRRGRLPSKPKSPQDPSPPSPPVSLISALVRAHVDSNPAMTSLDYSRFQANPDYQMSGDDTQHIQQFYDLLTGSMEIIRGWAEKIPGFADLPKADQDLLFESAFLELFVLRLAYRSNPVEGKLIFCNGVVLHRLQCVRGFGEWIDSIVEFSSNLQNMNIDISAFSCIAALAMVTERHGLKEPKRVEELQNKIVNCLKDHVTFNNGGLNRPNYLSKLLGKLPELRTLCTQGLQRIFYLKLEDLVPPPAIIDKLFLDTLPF
UniProt Q92570: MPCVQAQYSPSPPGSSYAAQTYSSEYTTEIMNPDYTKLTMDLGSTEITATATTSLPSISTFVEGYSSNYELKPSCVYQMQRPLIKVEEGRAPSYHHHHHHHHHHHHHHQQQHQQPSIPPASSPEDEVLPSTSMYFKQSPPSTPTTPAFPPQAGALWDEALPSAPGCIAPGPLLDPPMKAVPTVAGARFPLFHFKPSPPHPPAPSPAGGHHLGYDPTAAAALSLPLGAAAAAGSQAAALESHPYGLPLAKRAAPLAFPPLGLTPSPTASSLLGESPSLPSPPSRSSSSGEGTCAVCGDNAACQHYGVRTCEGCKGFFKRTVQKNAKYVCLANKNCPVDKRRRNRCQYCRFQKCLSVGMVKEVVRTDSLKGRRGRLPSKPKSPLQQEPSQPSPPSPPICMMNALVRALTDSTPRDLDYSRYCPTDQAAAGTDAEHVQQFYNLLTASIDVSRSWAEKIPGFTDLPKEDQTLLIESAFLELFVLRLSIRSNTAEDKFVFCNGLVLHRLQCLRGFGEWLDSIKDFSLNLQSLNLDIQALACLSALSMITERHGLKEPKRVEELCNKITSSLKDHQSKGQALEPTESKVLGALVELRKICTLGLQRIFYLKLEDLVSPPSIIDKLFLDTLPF
UniProt Q13133, whole entry: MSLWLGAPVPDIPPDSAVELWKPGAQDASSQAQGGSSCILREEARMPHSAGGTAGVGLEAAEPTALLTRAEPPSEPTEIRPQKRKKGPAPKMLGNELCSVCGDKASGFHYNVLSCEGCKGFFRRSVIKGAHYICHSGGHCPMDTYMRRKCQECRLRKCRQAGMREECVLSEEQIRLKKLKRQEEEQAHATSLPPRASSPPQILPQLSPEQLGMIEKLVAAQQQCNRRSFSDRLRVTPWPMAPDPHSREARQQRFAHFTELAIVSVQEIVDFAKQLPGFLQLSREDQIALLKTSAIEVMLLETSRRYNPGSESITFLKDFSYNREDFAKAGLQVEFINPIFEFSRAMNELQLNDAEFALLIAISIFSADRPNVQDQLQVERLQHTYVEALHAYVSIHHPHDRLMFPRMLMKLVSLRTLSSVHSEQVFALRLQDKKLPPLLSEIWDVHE
UniProt P22736, whole entry: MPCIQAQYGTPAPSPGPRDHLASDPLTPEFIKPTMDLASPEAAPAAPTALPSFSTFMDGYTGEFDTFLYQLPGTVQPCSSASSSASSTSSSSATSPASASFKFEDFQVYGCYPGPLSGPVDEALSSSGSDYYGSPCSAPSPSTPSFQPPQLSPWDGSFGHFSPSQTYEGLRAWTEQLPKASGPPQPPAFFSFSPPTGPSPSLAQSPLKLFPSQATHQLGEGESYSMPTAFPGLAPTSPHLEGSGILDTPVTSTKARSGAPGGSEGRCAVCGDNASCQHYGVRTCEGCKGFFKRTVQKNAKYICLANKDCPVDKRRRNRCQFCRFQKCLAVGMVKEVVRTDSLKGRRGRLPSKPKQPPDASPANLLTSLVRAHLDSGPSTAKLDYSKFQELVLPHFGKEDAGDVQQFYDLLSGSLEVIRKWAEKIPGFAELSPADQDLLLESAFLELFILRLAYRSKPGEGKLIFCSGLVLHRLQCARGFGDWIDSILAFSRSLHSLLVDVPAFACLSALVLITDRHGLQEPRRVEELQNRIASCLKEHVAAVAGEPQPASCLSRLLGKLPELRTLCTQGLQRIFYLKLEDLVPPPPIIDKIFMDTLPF
UniProt P51449: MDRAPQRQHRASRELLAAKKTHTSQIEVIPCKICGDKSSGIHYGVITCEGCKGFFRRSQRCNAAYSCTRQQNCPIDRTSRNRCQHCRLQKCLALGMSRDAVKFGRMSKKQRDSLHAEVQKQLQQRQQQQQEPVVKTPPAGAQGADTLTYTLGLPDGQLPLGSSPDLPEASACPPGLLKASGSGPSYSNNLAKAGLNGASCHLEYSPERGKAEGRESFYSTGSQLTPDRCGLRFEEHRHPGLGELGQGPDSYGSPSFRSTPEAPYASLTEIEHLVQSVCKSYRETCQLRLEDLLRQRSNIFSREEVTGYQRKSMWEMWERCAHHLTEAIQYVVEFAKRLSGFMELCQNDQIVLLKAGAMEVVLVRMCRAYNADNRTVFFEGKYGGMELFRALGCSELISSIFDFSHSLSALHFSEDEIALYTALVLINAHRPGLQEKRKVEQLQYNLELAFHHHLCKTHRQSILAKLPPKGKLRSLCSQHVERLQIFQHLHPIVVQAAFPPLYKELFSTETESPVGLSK

The source made the active and inactive calls. The calls are words filed in the database; no cut-off is given here.

Format in all cases: cell-based
The target of experiment [1] is Retinoic acid receptor alpha (Homo sapiens) (UniProt P10276). Put plainly: Modulation activity at RARalpha LBD (unknown origin) transfected in human HEK293T cells co-transfected with pFR-Luc/pRL-SV40 assessed as fold activation of luciferase activity at 30 uM incubated for 16 hrs by Gal4 hybrid reporter gene assay relative to control. (In general: A reporter such as luciferase makes a cellular process visible.)

Experiment [2] concerns the target Nuclear receptor subfamily 4 group A member 2 (Rattus norvegicus) (UniProt Q07917). Put plainly: Agonist activity at Nurr1 in rat N27 cells assessed as increase in TH mRNA expression level at 3 to 30 uM incubated for 16 hrs by qPCR analysis. The following applies: filed as agonist, dose 3-30 µM.
In experiment [3] the target is T1, Bile acid receptor (Homo sapiens) (UniProt Q96RI1).
T1 sequence (whole entry): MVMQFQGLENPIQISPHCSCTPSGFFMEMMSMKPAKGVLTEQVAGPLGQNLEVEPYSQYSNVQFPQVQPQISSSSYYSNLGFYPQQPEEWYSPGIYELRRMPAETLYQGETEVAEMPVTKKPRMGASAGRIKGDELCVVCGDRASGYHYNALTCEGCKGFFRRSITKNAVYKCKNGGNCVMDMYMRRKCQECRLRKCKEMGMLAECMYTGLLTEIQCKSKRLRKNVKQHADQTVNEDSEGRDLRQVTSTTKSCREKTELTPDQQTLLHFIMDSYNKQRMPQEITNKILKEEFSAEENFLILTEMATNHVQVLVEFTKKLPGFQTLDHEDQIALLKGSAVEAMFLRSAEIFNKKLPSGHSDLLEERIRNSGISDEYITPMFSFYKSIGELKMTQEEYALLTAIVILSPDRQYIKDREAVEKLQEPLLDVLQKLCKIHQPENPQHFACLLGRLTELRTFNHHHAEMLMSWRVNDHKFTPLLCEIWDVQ
Kind of experiment: Modulation activity at FXR LBD (unknown origin) transfected in human HEK293T cells co-transfected with pFR-Luc/pRL-SV40 assessed as fold activation of luciferase activity at 30 uM incubated for 16 hrs by Gal4 hybrid reporter gene assay relative to control.

Experiment [4] has as its target Nuclear receptor subfamily 4 group A member 2 (Rattus norvegicus) (UniProt Q07917). Kind of experiment: Agonist activity at Nurr1 in rat N27 cells assessed as increase in SOD1 mRNA expression level at 3 to 30 uM incubated for 16 hrs by qPCR analysis. The following applies: filed as agonist, dose 3-30 µM. For orientation: Real-time PCR tracks product formation cycle by cycle.

The target is the same in experiment [5]. Kind of experiment: Agonist activity at Nurr1 in rat N27 cells assessed as increase in VMAT mRNA expression level at 3 to 30 uM incubated for 16 hrs by qPCR analysis. The conditions noted are these: filed as agonist, dose 3-30 µM.
Experiment [6] concerns the target Nuclear receptor subfamily 4 group A member 3 (Homo sapiens) (UniProt Q92570). Kind of experiment: Agonist activity at NOR1 LBD (unknown origin) transfected in human HEK293T cells co-transfected with pFR-Luc/pRL-SV40 assessed as fold activation of luciferase activity incubated for 16 hrs by Gal4 hybrid reporter gene assay.
In experiment [7] the target is Oxysterols receptor LXR-alpha (Homo sapiens) (UniProt Q13133). Put plainly: Modulation activity at LXRalpha LBD (unknown origin) transfected in human HEK293T cells co-transfected with pFR-Luc/pRL-SV40 assessed as fold activation of luciferase activity at 30 uM incubated for 16 hrs by Gal4 hybrid reporter gene assay relative to control.
Experiment [8] deals with T2, Nuclear receptor subfamily 1 group D member 1 (Homo sapiens) (UniProt P20393).
T2 sequence (whole entry): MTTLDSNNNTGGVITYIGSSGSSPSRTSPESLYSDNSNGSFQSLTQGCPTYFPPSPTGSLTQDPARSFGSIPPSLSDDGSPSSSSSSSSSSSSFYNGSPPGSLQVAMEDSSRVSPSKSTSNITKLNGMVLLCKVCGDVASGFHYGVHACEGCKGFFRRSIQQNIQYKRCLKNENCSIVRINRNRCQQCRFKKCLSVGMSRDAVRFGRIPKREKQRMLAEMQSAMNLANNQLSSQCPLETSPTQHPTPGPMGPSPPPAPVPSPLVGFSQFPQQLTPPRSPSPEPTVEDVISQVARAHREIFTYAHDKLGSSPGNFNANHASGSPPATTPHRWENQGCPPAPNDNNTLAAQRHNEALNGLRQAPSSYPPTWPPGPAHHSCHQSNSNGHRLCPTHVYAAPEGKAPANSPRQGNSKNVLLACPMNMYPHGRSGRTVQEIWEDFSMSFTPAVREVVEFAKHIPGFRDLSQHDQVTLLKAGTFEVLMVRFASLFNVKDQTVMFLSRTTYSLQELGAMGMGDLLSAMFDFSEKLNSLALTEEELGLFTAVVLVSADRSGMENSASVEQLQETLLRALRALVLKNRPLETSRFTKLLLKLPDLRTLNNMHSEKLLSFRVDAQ
Kind of experiment: Modulation activity at Rev-ERBalpha LBD (unknown origin) transfected in human HEK293T cells co-transfected with pFR-Luc/pRL-SV40 assessed as fold activation of luciferase activity at 30 uM incubated for 16 hrs by Gal4 hybrid reporter gene assay relative to control.

For experiment [9], the target named is Nuclear receptor subfamily 4immunitygroup A member 1 (Homo sapiens) (UniProt P22736). Put plainly: Agonist activity at Nur77 LBD (unknown origin) transfected in human HEK293T cells co-transfected with pFR-Luc/pRL-SV40 assessed as fold activation of luciferase activity incubated for 16 hrs by Gal4 hybrid reporter gene assay. The conditions noted are these: filed as agonist.

Experiment [10] deals with T3, Retinoic acid receptor RXR-alpha (Homo sapiens) (UniProt P19793).
T3 sequence (whole entry): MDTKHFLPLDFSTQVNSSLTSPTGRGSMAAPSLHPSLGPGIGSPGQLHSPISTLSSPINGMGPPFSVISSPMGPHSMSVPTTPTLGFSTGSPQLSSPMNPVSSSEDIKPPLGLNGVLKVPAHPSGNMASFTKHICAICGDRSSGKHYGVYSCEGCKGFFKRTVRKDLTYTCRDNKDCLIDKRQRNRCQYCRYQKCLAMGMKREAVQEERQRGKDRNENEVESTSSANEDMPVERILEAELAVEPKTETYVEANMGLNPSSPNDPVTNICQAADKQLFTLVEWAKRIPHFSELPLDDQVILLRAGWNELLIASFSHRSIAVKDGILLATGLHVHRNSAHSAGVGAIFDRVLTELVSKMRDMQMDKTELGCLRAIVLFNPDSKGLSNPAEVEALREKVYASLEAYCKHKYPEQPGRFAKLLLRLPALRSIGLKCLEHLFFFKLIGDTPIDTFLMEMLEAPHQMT
Put plainly: Modulation activity at RXRalpha LBD (unknown origin) transfected in human HEK293T cells co-transfected with pFR-Luc/pRL-SV40 assessed as fold activation of luciferase activity at 30 uM incubated for 16 hrs by Gal4 hybrid reporter gene assay relative to control.

Experiment [11] deals with Nuclear receptor subfamily 4 group A member 2 (Rattus norvegicus) (UniProt Q07917). Kind of experiment: Agonist activity at Nurr1 in rat N27 cells assessed as increase in SOD2 mRNA expression level at 3 to 30 uM incubated for 16 hrs by qPCR analysis. The conditions noted are these: filed as agonist, dose 3-30 µM.
Experiment [12] concerns the target T4, Thyroid hormone receptor alpha (Homo sapiens) (UniProt P10827).
T4 sequence (whole entry): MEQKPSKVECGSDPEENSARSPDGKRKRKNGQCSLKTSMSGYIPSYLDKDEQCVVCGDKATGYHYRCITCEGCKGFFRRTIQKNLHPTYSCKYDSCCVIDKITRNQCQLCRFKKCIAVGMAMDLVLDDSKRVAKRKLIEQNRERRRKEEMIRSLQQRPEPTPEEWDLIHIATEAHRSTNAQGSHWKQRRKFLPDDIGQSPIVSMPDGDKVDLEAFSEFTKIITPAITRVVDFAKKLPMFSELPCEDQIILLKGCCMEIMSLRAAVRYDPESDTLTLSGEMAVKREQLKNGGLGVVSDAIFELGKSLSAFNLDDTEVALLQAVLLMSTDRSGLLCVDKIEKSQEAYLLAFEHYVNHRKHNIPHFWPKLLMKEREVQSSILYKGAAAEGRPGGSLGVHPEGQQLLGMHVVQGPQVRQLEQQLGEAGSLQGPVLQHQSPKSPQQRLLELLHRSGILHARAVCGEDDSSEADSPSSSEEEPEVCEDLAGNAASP
Put plainly: Modulation activity at THRalpha LBD (unknown origin) transfected in human HEK293T cells co-transfected with pFR-Luc/pRL-SV40 assessed as fold activation of luciferase activity at 30 uM incubated for 16 hrs by Gal4 hybrid reporter gene assay relative to control.

Experiment [13] concerns the target T5, Vitamin D3 receptor (Homo sapiens) (UniProt P11473).
T5 sequence (whole entry): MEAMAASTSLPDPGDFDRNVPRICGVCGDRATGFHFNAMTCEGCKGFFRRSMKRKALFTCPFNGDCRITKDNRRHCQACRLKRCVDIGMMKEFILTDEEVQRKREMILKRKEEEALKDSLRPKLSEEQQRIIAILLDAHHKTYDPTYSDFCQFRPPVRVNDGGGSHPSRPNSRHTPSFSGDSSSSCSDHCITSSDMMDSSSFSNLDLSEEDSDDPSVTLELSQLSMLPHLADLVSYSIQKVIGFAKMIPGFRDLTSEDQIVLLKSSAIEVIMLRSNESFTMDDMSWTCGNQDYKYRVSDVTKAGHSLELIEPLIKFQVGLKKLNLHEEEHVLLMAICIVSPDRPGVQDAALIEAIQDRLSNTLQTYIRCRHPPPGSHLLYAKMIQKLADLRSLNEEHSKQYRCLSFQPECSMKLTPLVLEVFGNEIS
Kind of experiment: Modulation activity at VDR LBD (unknown origin) transfected in human HEK293T cells co-transfected with pFR-Luc/pRL-SV40 assessed as fold activation of luciferase activity at 30 uM incubated for 16 hrs by Gal4 hybrid reporter gene assay relative to control.

For experiment [14], the target named is Nuclear receptor ROR-gamma (Homo sapiens) (UniProt P51449). Put plainly: Modulation activity at RORgamma LBD (unknown origin) transfected in human HEK293T cells co-transfected with pFR-Luc/pRL-SV40 assessed as fold activation of luciferase activity at 30 uM incubated for 16 hrs by Gal4 hybrid reporter gene assay relative to control.

Regarding `CN(C)CCOc1ccc(Cl)cc1Nc1ccnc2cc(Cl)ccc12`, the result in experiment [1], in [3], in experiment [6], in experiment [7], in [8] and in [10] was inactive. Also, the outcome in [12], in experiment [13] and in [14] was inactive. Further, the Activity result in [2], in experiment [4], in experiment [5] and in [11] was “Dose-Dependent Effect” throughout. The outcome in experiment [9] was Active.
For the compound `CN(C)CCOc1ccc(Cl)cc1NC(=O)c1cc2[nH]ccc2cc1Cl`, the result in experiment [1], in experiment [3], in experiment [6], in experiment [7], in experiment [8] and in experiment [10] was inactive. Moreover, the result in experiment [12], in experiment [13] and in [14] was inactive. For the same compound, the Activity entry in experiment [2], in [4], in experiment [5] and in experiment [11] was “Dose-Dependent Effect” in each case. For the same compound, the outcome in experiment [9] was Active.
